Results taken from patent US20230108186A1, “NITRIC OXIDE-RELEASING ANTIBACTERIAL COMPOUNDS, FORMULATIONS, AND METHODS PERTAINING THERETO” (published 2023).

Experiment: Nitric oxide analysis (NOA) release profile measured by chemiluminescence

In the case of `[O-]/[N+](=N\O)C(/[N+]([O-])=N/O)/[N+]([O-])=N/O`, the “moles of NO released per 1 mole, in keeping with the described degradation pathway” value (basis of the theoretical yield) is reported as 2 mol and the “theoretical load / theoretical yield of NO” value (release of a single diazeniumdiolate group, 2 moles NO per mole) is reported as 7.6 μmol NO/mg.
